Source: US20230218714A1, “DIAGNOSTICS AND USE OF QUORUM SENSING MOLECULES IN MUSCLE WASTING” (Universiteit Gent, priority 2019, published 2023)

Key:
[1] = system: C2C12 myoblasts; experiment: MTT cell viability assay in C2C12 myoblasts
Experimental: The mouse myoblast C2C12 cell line (ATCC, CRL-1772) was cultured at 37° C. in a 5% CO2 humidified incubator in Dulbecco's modified Eagle medium (DMEM; Thermo Fisher Scientific). For C2C12 cell proliferation, the medium was supplemented with 10% fetal bovine serum (FBS; Thermo Fisher Scientific), 100 units/ml penicillin, and 100 μg/ml streptomycin (1% Pen/Strep; Thermo Fisher Scientific). The proliferation medium was renewed each 2-3 days and confluency was kept below 80%. For differentiation of the C2C12 myoblasts into myotubes, proliferation medium was replaced by differentiation medium when cells reached 80% confluency.
Viability of QSM was assessed using the 3-(4,5-dimethylthiazol-2-yl)-2,5-diphenyltetrazolium bromide (MTT) assay. Briefly, C2C12 myoblasts were seeded in a 96-well plate (3×10^4 cells/well). 24 hours post-seeding, the wells were treated with QSM (1 μM), placebo or positive control (DMSO 2%) and incubated for 24 hours at 37° C. Next, 20 μL of MTT reagent (5 mg/mL; Sigma-Aldrich) was added to each well and the plates were returned to the incubator for 2.5 hours. After incubation, supernatant was removed from the wells and 150 μL of DMSO was added to release and dissolve the formazan crystals. Absorbance was measured at 570 nm using a microplate reader (Thermo Fisher).
The MTT assay is a widely validated and accepted viability assay for screening experiments. In this assay, the reduction of MTT into formazan, catalysed by living cell enzymes, is used as a marker of cell viability. If QSM are cytotoxic or cytostatic towards C2C12 cells, a decrease in MTT reduction is expected (viability less than 100%), while an increased C2C12 proliferation caused by QSM will result in an increased MTT reduction (viability more than 100%).
In a further set of experiments, the dose response effect of QSPs Q22 and Q184 was assessed on MTT reduction of C2C12 myotubes (tables 7.4 and 7.5).

[2] = system: C2C12 myotubes; experiment: MTT reduction dose response in C2C12 myotubes; assay type: cell-based, mouse
Experimental: In a further set of experiments, using similar methods as described for the screening experiments, a number of QSPs were tested for a dose response relation in C2C12 cells.

[3] = system: C. elegans; experiment: C. elegans swimming behaviour (muscle wasting/aging model); assay type: in vivo; conditions: QSP in medium (1 μM; QSP022 also 10 μM), swimming parameters
From the text: The C. elegans model is a well-established aging model: they diminish in locomotory vigor as they age, a phenomenon that is attributed to a physical deterioration of muscle and synapses. QSPs were introduced in the medium of living C. elegans. As comparisons, a placebo experiment was used as negative control, while DMSO was used as positive control.
Using automatic, objective imaging software, different swimming behaviour variables associated with this decrease in locomotory vigor or muscle wasting were investigated. Wave initiation rate, travel speed, brush stroke and activity index do decrease with muscle wasting, while body wave number, asymmetry, curling and stretch do increase with muscle wasting, as described in Restif et al., Plos Computational Biology, 2014.
More in particular, the results in these tables show Q184-associated changes in three swimming parameters in wild-type adults at day 3 (Table 9) and day 12 (Table 10) (n=120-170 from 3 independent trials for each condition). Data presented are means±s.e.m (placebo set to 1.0).

[4] = system: human muscle cells; experiment: MTT reduction dose response in human muscle cells; assay type: cell-based; conditions: FIG. 9
Experimental: Differentiation medium consisted of high glucose Glutamax DMEM supplemented with penicillin (100 units/ml), streptomycin (100 μg/ml) and insulin (10 μg/mL).
Using similar methods as described for the C2C12 experiments, a number of QSPs were tested for a dose response relation in human muscle cells.

In the case of `CC[C@H](C)[C@@H]1NC(=O)CNC(=O)[C@H](C(C)C)NC(=O)[C@@H](N)CSC(=O)[C@H](Cc2c[nH]c3ccccc23)NC1=O` [Q022, CVGIW], the “Imax (relative MTT)” value ([1]; Blasts) is reported as 0.63 relative MTT, the IC10 ([1]; MTT, Blasts) is reported as 0.76 µM and the IC50 ([1]; MTT, Blasts) is reported as 4.33 µM. The “Effect: viability (hit direction)” value ([1]; screening at 1 μM, hit selection by MAD/quartile/SSMD/robust SSMD) was “strong decreasing viability hit”, the IC10 ([2]; MTT, Tubes) was 2.38 µM and the IC50 ([2]; MTT, Tubes) was 7.55 µM. For the same molecule, the “Imax (relative MTT)” value ([2]; Tubes) was 0.55 relative MTT, the “Relative MTT” value ([2]; concentration 0.10 μM) was 0.99 and the “Relative MTT” value ([2]; concentration 0.50 μM) was 1.02. The “Relative MTT” value ([2]; concentration 1.00 μM) was 1.03, the “Relative MTT” value ([2]; concentration 5.00 μM) was 0.86 and the “Relative MTT” value ([2]; concentration 10 μM) was 0.73. For the same molecule, the “Relative MTT” value ([2]; concentration 50 μM) was 0.58, the “Relative MTT” value ([2]; concentration 100 μM) was 0.55 and the “muscle wasting / aging muscle phenotype in C. elegans” value [3] was “muscle wasting effects; also recorded: inducing a muscle wasting phenotype”. The “muscle wasting / aging muscle phenotype in C. elegans” value ([3]; listed as QSP022) was “induces an aging muscle phenotype” and the “dose response relation, MTT reduction” value [4] was “Typical curves were obtained”.

Entries after “also recorded” stand apart in the source; their conditions may differ.
